According to patent publication US12065466B2, “Methods and compositions for protein sequencing” (Quantum-Si Incorporated, priority 2020, dated 2024):

Legend:
[1] = target: T1, rat aminopeptidase N (Rat APN) (Rattus norvegicus, UniProt P15684); test: Terminal amino acid cleavage of peptide-linker conjugates by Rat APN (LCMS); format: biochemical; conditions: monitored by LCMS
T1 sequence (P15684 1-965): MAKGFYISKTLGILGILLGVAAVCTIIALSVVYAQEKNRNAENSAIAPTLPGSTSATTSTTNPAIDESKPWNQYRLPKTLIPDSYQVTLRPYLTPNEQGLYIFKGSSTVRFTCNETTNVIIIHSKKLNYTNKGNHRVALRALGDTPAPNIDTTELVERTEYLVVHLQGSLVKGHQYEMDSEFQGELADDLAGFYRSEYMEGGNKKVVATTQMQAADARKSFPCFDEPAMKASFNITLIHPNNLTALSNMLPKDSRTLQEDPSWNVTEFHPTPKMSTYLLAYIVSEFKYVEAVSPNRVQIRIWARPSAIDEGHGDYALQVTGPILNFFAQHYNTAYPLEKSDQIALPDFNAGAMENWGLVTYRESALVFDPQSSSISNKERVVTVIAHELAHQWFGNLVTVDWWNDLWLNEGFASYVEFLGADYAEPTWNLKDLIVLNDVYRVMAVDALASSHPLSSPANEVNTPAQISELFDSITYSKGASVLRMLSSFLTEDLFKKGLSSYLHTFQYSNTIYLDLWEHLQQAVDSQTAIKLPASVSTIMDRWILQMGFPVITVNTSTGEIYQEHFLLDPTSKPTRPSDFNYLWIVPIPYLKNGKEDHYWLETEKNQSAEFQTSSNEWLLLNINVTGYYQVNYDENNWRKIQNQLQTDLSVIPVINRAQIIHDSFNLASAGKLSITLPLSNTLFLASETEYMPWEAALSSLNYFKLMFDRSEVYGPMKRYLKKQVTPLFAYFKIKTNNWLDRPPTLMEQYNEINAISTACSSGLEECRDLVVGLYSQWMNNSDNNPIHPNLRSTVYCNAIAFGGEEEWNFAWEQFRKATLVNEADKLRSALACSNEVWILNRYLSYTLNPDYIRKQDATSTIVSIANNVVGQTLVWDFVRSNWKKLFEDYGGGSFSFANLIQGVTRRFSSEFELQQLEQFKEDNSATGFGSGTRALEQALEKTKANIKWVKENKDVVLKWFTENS
Procedure: The peptide-linker conjugates were evaluated for amino acid cleavage at peptide N-termini by N-terminal aminopeptidases (Table 6, below).
The peptide-linker conjugates shown in Table 6 were incubated with either proline iminopeptidase (“PIP”) or rat aminopeptidase N (“Rat APN”), and peptide cleavage was monitored by LCMS. All other cleavage reactions were measured in a similar manner.

[2] = system: amino acid at a terminal position of a polypeptide; conditions: Table 2; amino acid identity at a terminal position (phosphotyrosine also internal); inferred from literature and/or demonstrated by the inventors; cited from earlier work

Cleaved by Rat APN [1] | Substance | Binding Pref. [2]
No | 1: peptide-linker conjugate: KF (SEQ ID NO. 223), oligo linker (oligo linker) [Entry 1] | 
 | H. sapiens p62 protein: SEQ ID NO: 123 | K, R, H,; also recorded: W, F, Y

“Also recorded” adds a separate entry of the source.
